Source: PMC9102038 (International Journal of Molecular Sciences, 2022)

The chains behind the UniProt entries cited, without tags or fusion partners. Residues count along the entry.
UniProt P37231, 231-505: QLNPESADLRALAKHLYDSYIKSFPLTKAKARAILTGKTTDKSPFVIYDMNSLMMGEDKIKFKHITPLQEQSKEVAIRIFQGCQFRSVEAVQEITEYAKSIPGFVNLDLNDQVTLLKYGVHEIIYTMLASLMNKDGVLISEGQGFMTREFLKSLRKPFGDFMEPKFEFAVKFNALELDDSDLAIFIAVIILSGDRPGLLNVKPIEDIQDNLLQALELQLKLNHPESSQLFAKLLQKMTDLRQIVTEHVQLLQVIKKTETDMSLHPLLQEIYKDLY
UniProt P37231, 238-503 limits assumed, stated change not applied: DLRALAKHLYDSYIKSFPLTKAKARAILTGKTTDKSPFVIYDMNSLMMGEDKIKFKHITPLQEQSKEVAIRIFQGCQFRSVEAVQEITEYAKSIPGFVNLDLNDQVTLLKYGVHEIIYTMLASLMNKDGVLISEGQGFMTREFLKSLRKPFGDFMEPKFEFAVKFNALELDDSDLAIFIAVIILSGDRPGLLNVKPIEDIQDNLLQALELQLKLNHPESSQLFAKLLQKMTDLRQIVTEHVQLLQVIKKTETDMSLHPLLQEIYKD

Columns and labels:
human PPARγ-LBD [1] = target: T1, human PPARγ-LBD (Homo sapiens, UniProt P37231); assay: TR-FRET SRC1 coactivator peptide recruitment assay, PPARγ-LBD; settings: read-out: EC50, SRC1 recruitment to PPARγ-LBD, cell-free
human PPARγ-LBD [2] = target: T1, human PPARγ-LBD; assay: TR-FRET PGC1α coactivator peptide recruitment assay, PPARγ-LBD; settings: read-out: EC50, PGC1α recruitment to PPARγ-LBD, cell-free
[3] = target: GAL4–human PPARγ-LBD chimera (Homo sapiens, UniProt P37231); assay: GAL4–hPPARγ-LBD dual luciferase transactivation assay in COS-7 cells; settings: read-out: EC50, PPARγ-LBD-mediated transactivation, 10 h treatment

EC50 (human PPARγ-LBD [1]): 75.6 nM | EC50 (human PPARγ-LBD [2]): 32.2 nM | EC50 [3]: 18.3 nM
Substance: GW1929
